Measurements: patent publication US10105382B2, “Therapy regimen and methods to sensitize cancer cells treated with epigenetic therapy to PARP inhibitors in ovarian cancer” (THE JOHNS HOPKINS UNIVERSITY, priority 2014, dated 2018)

Chains of the proteins cited; added tags and fusions are not shown.
UniProt P09874, whole entry: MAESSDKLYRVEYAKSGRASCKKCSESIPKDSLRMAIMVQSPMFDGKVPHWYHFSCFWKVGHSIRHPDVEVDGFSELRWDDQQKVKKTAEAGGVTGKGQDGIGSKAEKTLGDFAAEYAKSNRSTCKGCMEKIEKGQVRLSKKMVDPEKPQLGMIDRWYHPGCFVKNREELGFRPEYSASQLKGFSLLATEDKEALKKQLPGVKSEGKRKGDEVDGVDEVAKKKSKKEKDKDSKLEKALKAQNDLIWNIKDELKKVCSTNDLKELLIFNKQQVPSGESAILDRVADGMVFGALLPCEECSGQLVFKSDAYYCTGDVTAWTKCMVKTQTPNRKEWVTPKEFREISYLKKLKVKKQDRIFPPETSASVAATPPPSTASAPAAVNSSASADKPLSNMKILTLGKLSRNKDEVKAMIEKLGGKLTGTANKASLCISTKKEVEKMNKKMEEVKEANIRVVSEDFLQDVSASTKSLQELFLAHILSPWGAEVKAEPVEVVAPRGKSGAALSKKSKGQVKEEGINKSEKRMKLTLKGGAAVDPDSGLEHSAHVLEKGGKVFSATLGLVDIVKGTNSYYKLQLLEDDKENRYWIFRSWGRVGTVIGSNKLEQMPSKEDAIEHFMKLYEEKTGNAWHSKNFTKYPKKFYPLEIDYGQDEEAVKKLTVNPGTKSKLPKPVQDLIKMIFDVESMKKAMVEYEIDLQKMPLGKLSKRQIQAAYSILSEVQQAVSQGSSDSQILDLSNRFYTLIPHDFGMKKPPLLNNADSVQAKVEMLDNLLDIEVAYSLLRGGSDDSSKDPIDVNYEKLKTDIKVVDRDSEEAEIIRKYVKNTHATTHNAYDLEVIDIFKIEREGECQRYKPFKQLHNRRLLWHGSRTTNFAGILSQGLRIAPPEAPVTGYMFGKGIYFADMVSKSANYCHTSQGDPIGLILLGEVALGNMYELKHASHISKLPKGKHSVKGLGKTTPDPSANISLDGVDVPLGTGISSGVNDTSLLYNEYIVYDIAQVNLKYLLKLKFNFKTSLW

Key:
PARP1 = biological target: T1, PARP1 (Homo sapiens, UniProt P09874); assay: PARP1 trapping in chromatin, Western blot of chromatin extracts of X-irradiated AML cells; type: cell-based; conditions: BMN673 1 nM or 10 nM compared with ABT888 500 nM or 5 μM; 4Gy X-irradiated AML cells
T1 construct: chromatin extracts from cells X-irradiated (4Gy) to induce DSBs were examined; endogenous in cells; host or cells: MV411 and MOLM14 AML cells

PARP = conditions: Shen et al., 2013; cited from earlier work

Cn1ncnc1[C@H]1c2n[nH]c(=O)c3cc(F)cc(c23)N[C@@H]1c1ccc(F)cc1 [BMN673]
PARP1 in chromatin (PARP1): increased in chromatin
inhibitory activity relative to earlier classes of PARPi's (PARP): up to 100 fold
